Values quoted from earlier work in patent EP4003298B1 (Offhealth S.p.A., priority 2019, dated 2021).

System: eye
Settings: cited from earlier work

Substance: vitamin E - D-α-tocopherol polyethylene glycol (TPGS) [vitamin E TGPS]
- concentration with cytotoxic (irritating) effect on the eye: greater than 0.5 % by weight
